Read-outs that look alike come from different tables or passages of the source.

This note sets out measurements from US20240408169A1 (priority 2023, published 2024).

One test deals with T1, CyclinA2/CDK2 (Homo sapiens, UniProt P20248).
T1 construct: purchased CRELUX Protein Services
Nature of the test: Fluorescence Polarization (FP) competitive binding assay, Cyclin A2/Cdk2.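 Note: plates equilibrated two hours at room temperature before polarization reading, IC50 fitted from eight-concentration compound titration curves.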 The conditions noted are these: Cyclin A FP IC50, 8 nM Cyclin A2/Cdk2, 2 nM FAM probe; average of 2-3 independent experiments.

The target in a further test is T2, CyclinB1/CDK1 (Homo sapiens, UniProt P14635).
T2 construct: purchased Eurofins, discovery 14-450
Nature of the test: Fluorescence Polarization (FP) competitive binding assay, Cyclin B1/Cdk1.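 Note: fluorescence polarization read after equilibration at room temperature, with IC50 taken from serially diluted dose-response curves.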 The following applies: read-out: Cyclin B FP IC50; 10 nM Cyclin B1/Cdk1, 2 nM FAM probe; average of 2-3 independent experiments. (Polarisation of emitted light reports the rotation of a fluorescent probe.)

For a further test, the target named is T3, CyclinE1/CDK2 (Homo sapiens, UniProt P24864).
T3 construct: purchased Eurofins, discovery 14-475
The experiment in a line: Fluorescence Polarization (FP) competitive binding assay, Cyclin E1/Cdk2.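 Note: readings taken after two-hour equilibration at room temperature in HEPES buffer with NaCl, DTT, NP-40 and BSA, IC50 fitted from eight-concentration serial dilution series.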 The conditions noted are these: average of 2-3 independent experiments.

Regarding `CC(C)C[C@@H]1NC(=O)[C@@H](N(C)C(=O)[C@@H](NC(=O)[C@@H]2C[C@@H](F)CN2C(=O)C2(C(F)(F)F)CC(F)(F)C2)C2CC2)CCCCCCCNC(=O)[C@H](Cc2cc(Cl)ccc2-c2ccc3c(c2)COC32CN(C)C2)N(C)C1=O` [Example 395], the IC50 – broadly, the concentration needed to halve the response being measured – at CyclinA2/CDK2 stood at 0.06 µM; at CyclinB1/CDK1, 0.02 µM; on CyclinE1/CDK2 (Cyclin E FP IC50, 10 nM Cyclin E1/Cdk2, 2 nM FAM probe), 2.81 µM.
As for `CC(C)C[C@@H]1NC(=O)[C@@H](N(C)C(=O)[C@@H](NC(=O)[C@@H]2C[C@@H](F)CN2C(=O)C2(C(F)(F)F)CC(F)(F)C2)C2CC2)CCCCCCCNC(=O)[C@H](Cc2cc(Cl)ccc2-c2cnn(C)c2)N(C)C1=O` [Example 66], the 50% inhibitory concentration (IC50) on CyclinE1/CDK2 (10 nM Cyclin E1/Cdk2, 2 nM FAM probe, read-out: Cyclin E FP IC50) was determined as 0.45 µM.
